pIC50: −log10 of the molar value.
Columns and labels:
CBP BRD protein = CBP BRD protein (Homo sapiens, UniProt Q92793); experiment: CBP bromodomain TR-FRET inhibitory activity assay; details: read-out: CBP BRD IC50, Table 3
BRD4 (BD1) protein = BRD4 (BD1) protein (Homo sapiens, UniProt O60885); experiment: BRD4 bromodomain TR-FRET inhibitory activity assay; details: read-out: BRD4 (BD1) IC50, Table 4

Chains of the proteins cited; added tags and fusions are not shown. Residues count along the entry.
UniProt Q92793, 1085-1192 limits assumed: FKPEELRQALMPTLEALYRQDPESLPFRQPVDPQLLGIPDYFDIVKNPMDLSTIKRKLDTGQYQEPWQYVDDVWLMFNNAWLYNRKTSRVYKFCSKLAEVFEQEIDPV

Row | Compound | pIC50 (CBP BRD protein) | pIC50 (BRD4 (BD1) protein)
1 | Cn1cc(-c2cc3nc(C(C)(C)C)n(-c4cc(N5CCC(C)(O)CC5)c5c(c4)n(C)c(=O)n5C)c3cc2C(F)(F)F)cn1 | > 6.30 | 5.30 to 6.30
2 | C[C@H]1COCCN1c1cc(-n2c(-c3cncn3C)nc3cc(-c4cnn(C)c4)c(F)cc32)cc2c1n(C)c(=O)n2C | > 6.30 | < 5.30
3 | Cn1cc(-c2cc3nc(C(C)(C)C)n(-c4cc(Oc5ccc(F)cc5)c5c(c4)n(C)c(=O)n5C)c3cc2C(F)F)cn1 | > 6.30 | < 5.30
4 | Cn1cc(-c2cc3nc(-c4cncn4C)n(-c4cc(OCc5ccccc5)c5c(c4)n(C)c(=O)n5C)c3cc2C(F)F)cn1 | > 6.30 | < 5.30
5 | CNc1ccc(-c2cc3nc(-c4cncn4C)n(-c4cc(C5CCOCC5)c5c(c4)n(C)c(=O)n5C)c3cc2F)cc1 | 5.30 to 6.30 | < 5.30
6 | Cn1cc(-c2cc3nc(-c4cncn4C)n(-c4cc(C(C)(C)O)c5c(c4)n(C)c(=O)n5C)c3cc2F)cn1 | 5.30 to 6.30 | < 5.30
7 | Cc1ncc(-c2cc3nc(C(C)(C)C)n(-c4cc(N5CC(C)(O)C5)c5c(c4)n(C)c(=O)n5C)c3cc2OCc2ccccc2)s1 | > 6.30 | < 5.30
8 | CC(=O)N1CCC(Oc2cc(-n3c(C(C)(C)C)nc4cc(-c5cnn(C)c5)c(F)cc43)cc3c2n(C)c(=O)n3C)CC1 | > 6.30 | < 5.30
9 | Cn1cncc1-c1nc2cc(-c3ccc(N)cc3)c(F)cc2n1-c1ccc2c(c1)n(C)c(=O)n2C | > 6.30 | 5.30 to 6.30
10 | Cn1cc(-c2cc3nc(-c4cncn4C)n(-c4cc(OC5CCCC5)c5c(c4)n(C)c(=O)n5C)c3cc2F)cn1 | > 6.30 | < 5.30
11 | Cn1cc(-c2cc3nc(-c4cncn4C)n(-c4cc(OCC5CC5)c5c(c4)n(C)c(=O)n5C)c3cc2F)cn1 | > 6.30 | < 5.30
12 | CC(C)Nc1cc(-n2c(-c3cncn3C)nc3cc(-c4cnn(C)c4)c(F)cc32)cc2c1n(C)c(=O)n2C | > 6.30 | 5.30 to 6.30
13 | C#CC(C)(C)c1nc2cc(-c3cnn(C)c3)c(F)cc2n1-c1cc(N2CCOCC2)c2c(c1)n(C)c(=O)n2C | > 6.30 | < 5.30
14 | Cn1cc(-c2cc3nc(C(C)(C)C)n(-c4cc(N5CC(C)(O)C5)c5c(c4)n(C)c(=O)n5C)c3cc2F)cn1 | > 6.30 | < 5.30
15 | Cn1c(=O)n(C)c2c(N3CC(C)(O)C3)cc(-n3c(C(C)(C)C)nc4cc(C5CC5)c(C(F)F)cc43)cc21 | > 6.30 | < 5.30
16 | C#CC(C)(C)c1nc2cc(-c3cnn(C)c3)c(C#N)cc2n1-c1cc(C(C)C)c2c(c1)n(C)c(=O)n2C | > 6.30 | < 5.30
17 | CC(C)c1cc(-n2c(-c3cncn3C)nc3cc(-c4cnn(C)c4)c(C#N)cc32)cc2c1n(C)c(=O)n2C | > 6.30 | < 5.30
18 | Cc1cccc(-c2nc3cc(-c4cnn(C)c4)c(F)cc3n2-c2cc(C(C)C)c3c(c2)n(C)c(=O)n3C)c1C | > 6.30 | < 5.30
19 | COC(=O)C1CN1c1cc(-n2c(C(C)(C)C)nc3cc(-c4cnn(C)c4)c(F)cc32)cc2c1n(C)c(=O)n2C (centres unmarked) | > 6.30 | < 5.30
20 | CC(C)Oc1cc(-n2c(C(C)(C)C)nc3cc(-c4cnn(C)c4)c(C(F)(F)F)cc32)cc2c1n(C)c(=O)n2C | > 6.30 | < 5.30
21 | CCn1cc(-c2cc3nc(C(C)(C)C)n(-c4cc(N5CCOCC5)c5c(c4)n(C)c(=O)n5C)c3cc2C(F)F)cn1 | > 6.30 | < 5.30
22 | Cn1cc(-c2cc3nc(-c4cncn4C)n(-c4cc(N5CCOCC5)c5c(c4)n(C)c(=O)n5C)c3cc2F)cn1 | > 6.30 | < 5.30
23 | CC(C)Oc1cc(-n2c(C(C)(C)C)nc3cc(-c4cnn(C)c4)c(C(F)F)cc32)cc2c1n(C)c(=O)n2C | > 6.30 | < 5.30
24 | 3-(1,3-dimethyl-2-oxo-benzimidazol-5-yl)-2-(3-methylimidazol-4-yl)-6-(1-methylpyrazol-4-yl)benzimidazole-5-carbonitrile | > 6.30 | < 5.30
25 | C[C@H]1CCN1c1cc(-n2c(-c3cncn3C)nc3cc(-c4cnn(C)c4)c(F)cc32)cc2c1n(C)c(=O)n2C | > 6.30 | < 5.30
